Measurements from EP2729445B1, “CYCLIC AMINE DERIVATIVES AS EP4 RECEPTOR ANTAGONISTS” (Rottapharm Biotech S.r.l., priority 2011, dated 2013).

Protein sequences, listed by entry. Tags and fused reporters are not part of them. Lines headed by an entry give the natural chain unless they say otherwise; changes in a name come on top.
UniProt P35408: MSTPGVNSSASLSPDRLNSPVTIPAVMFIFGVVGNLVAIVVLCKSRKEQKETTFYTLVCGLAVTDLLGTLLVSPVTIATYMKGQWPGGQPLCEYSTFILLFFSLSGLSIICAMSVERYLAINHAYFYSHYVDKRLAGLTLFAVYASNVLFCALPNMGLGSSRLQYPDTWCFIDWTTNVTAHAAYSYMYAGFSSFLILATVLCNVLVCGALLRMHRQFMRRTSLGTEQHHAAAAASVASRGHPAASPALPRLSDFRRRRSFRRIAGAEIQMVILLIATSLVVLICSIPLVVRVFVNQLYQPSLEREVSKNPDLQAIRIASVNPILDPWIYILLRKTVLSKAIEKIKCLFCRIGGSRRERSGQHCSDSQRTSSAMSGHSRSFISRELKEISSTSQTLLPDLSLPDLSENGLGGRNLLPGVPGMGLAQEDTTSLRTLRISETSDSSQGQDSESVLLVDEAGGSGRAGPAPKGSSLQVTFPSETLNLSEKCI

What was measured:
hEP4 receptors [1] = molecular target: T1, hEP4 receptors (Homo sapiens, UniProt P35408); test: cAMP assay (AlphaScreen) on human EP4 membrane of transfected cells, antagonism of PGE2; assay type: biochemical; conditions: HEK293 cell membrane stimulated with PGE2 3nM; read-out: functional IC50
T1 construct: membrane fraction used
Experimental: (§1) The cDNA clone of human EP4 receptor (NM_000958.2) was obtained from InvitrogenTM: Ultimate™ ORF Clone Collection - Clone ID IOH46525. The coding sequence was subcloned in expression vector pcDNATM6.2/V5-DEST by Gateway technology (InvitrogenTM). Human embryonic kidney cells (HEK-293) were stably transfected with expression vector for human EP4 receptor in according to the method described in FuGENE®6 Transfection Reagent's manual (Roche Applied Science®).
(§2) The EP4 transfected cells were grown in Dulbecco's modified Eagle's medium containing 10% fetal bovine serum and 10 µg/ml Blasticidin S HCl (selection medium) at 37°C in a humidified atmosphere of 5% CO2 in air. […]
The assay is based on the competition between endogenous cAMP and exogenously added biotinylated cAMP. […] Cell membrane/anti-cAMP Acceptor beads mix (5 µl) and a mixture of analysed compounds (dissolved in 100% DMSO to a final maximal concentration of 0.01% DMSO)/PGE2 (5 µl) were incubated at room temperature (22-23°C) for 30 min in the dark. […] After 1 h incubation RT (22-23°C) in the dark the plate was read using EnVision platform to determine the cAMP level (excitation: 680nm; emission:520,620nm). […]
Antagonism studies were performed stimulating HEK293 cell membrane with PGE2 3nM. The AlphaScreen signal is plotted as a function of log concentration of cAMP and functional IC50 is determined. […]

hEP4 receptors [2] = molecular target: T1, hEP4 receptors; test: [3H]-Prostaglandin E2 membrane binding assay; conditions: human EP4/HEK293 transfectant membranes, 1nM [3H]-PGE2; Ki from IC50 by Cheng-Prousoff; pKi = -log10 Ki (M)
Experimental: as §1, §2
The membrane pellet was resuspended in the same buffer (5mM TRIS, 5mM ethylenediamine tetra-acetic acid (EDTA), pH 7.4), and protein concentration was determined by Bradford method (Bio-Bad® assay). […] Filters were washed with ice cold buffer pH 7.4 (50mM HEPES, NaCl 500mM, BSA 0.1% for EP4 binding assay or 50mM Tris-Cl for EP2 binding assays) and the residual [^3H]-PGE2 binding determined by solid scintillation counter (TopCount , PerkinElmer Inc).
The affinity (Ki) of each compound was calculated according to the Cheng-Prousoff equation: Ki = IC50/(1+([C]/Kd)). Results were expressed as pKi (- log10 Ki (M)

SMILES | IC50 (hEP4 receptors [1]) [nM] | Ki (hEP4 receptors [2]) [M]
O=C(O)c1ccc(C2(NC(=O)C3CC(F)(F)CCN3Cc3cccc(C(F)(F)F)c3)CC2)cc1 (single isomer, unassigned) [Example E19, 4-(1-(4,4-difluoro-1-(3-(trifluoromethyl)benzyl)piperidine-2-carboxamido)cyclopropyl)benzoic acid] | 15 | 1.26e-09
O=C(O)c1ccc(C2(NC(=O)C3CC(F)(F)CCN3Cc3cccc(C(F)(F)F)c3)CC2)cc1 (single isomer, unassigned) [Example E20, 4-(1-(4,4-difluoro-1-(3-(trifluoromethyl)benzyl)piperidine-2-carboxamido)cyclopropyl)benzoic acid] | 23 | 6.31e-10
